# Earlier results in patent EP1657250A1, “HLA-A *01-binding T-cell epitope of WT1” (Charité - Universitätsmedizin Berlin, priority 2004, dated 2006).
# By UniProt entry, the sequences of proteins in these tests, tags left out. Where a name states a change or a piece, a line headed by the entry shows the natural chain unless it says otherwise.
# UniProt P19544: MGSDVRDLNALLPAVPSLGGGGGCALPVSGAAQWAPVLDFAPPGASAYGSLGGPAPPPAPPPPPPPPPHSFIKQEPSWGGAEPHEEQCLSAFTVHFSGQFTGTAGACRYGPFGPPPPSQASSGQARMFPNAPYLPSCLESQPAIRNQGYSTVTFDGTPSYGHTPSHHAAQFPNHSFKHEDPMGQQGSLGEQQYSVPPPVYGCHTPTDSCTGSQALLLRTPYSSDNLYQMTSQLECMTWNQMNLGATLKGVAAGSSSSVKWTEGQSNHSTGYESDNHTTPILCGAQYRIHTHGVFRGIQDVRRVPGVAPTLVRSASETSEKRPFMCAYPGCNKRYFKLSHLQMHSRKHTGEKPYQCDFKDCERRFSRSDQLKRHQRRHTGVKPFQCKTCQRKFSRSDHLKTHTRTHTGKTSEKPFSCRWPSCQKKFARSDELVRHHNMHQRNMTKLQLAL
# System: relapsed acute myeloid leukaemia (AML)
# Conditions: cited from earlier work
substance,measurement,setting,value
"WT1.126-134: known HLA-A*0201-binding WT1 epitope (RMFPNAPYL; UniProt P19544 126-134, looked up, fragment)",clinical outcome associated with T-cell response,a patient with relapsed AML,complete remission
same,T-cell responses induced by vaccination,vaccination of patients,high frequency T-cell responses
